We go through 6 substances from patent US20190194324A1.

Bounds are passed on as bounds.

The target of one assay is LAG3-/-. Put plainly: cell surface binding (cortical neurons); LAG3-/- cortical neurons.
Another assay deals with WT. Put plainly: cell surface binding (cortical neurons); WT cortical neurons.
The target of assay [1] is APLP1 expressed in SH-SY5Y cells (FIG. 1B) (UniProt P51693). In words: cell surface binding (SH-SY5Y).
The target in assay [2] is CD4 expressed in SH-SY5Y cells. In words: cell surface binding (SH-SY5Y).
Assay [3] addresses LAG3 overexpressed in transfected cells (SH-SY5Y; HEK293FT). Put plainly: cell surface binding on transfected SH-SY5Y cells, PFF against α-syn-biotin monomer.
In assay [4] the target is APLP1 expressed in SH-SY5Y cells (FIG. 1B) (UniProt P51693). The assay is described as above.
Assay [5] concerns the target Neurexin1β expressed in SH-SY5Y cells (FIG. 1B). The description is as above.
A further assay has as its target NRXN3β. Put plainly: cell surface binding (SH-SY5Y).
For a further assay, the target named is APP. In words: cell surface binding (SH-SY5Y).
The next assay addresses NRXN1α. Put plainly: cell surface binding (SH-SY5Y).
For another assay, the target named is NRXN2β. Put plainly: cell surface binding (SH-SY5Y).
The next assay deals with APLP2. In words: cell surface binding (SH-SY5Y).
Another assay concerns the target NRXN1β. Put plainly: cell surface binding (SH-SY5Y).
The target of assay [6] is human recombinant LAG3 (human) (UniProt P18627). In words: ELISA, human LAG3 captured on an anti-LAG3 coated plate, HRP-streptavidin detection (legends: human α-syn PFF). For orientation: In an ELISA, binding on a coated surface is turned into a signal by an enzyme label.

Consider “α-SYN-BIOTIN (from UniProt O55042 1-140)”, for which the Kd with LAG3-/- stood at 449 nM; with WT, 374 nM.

As for “α-syn-biotin PFF (biotin-labelled α-synuclein pre-formed fibrils) (from UniProt O55042 1-140)”, the figures for the Kd in assay [1] and in assay [2] were 401 nM and over 3000 nM, respectively. The selectivity (Kd monomer divided by Kd PFF) in [3] is 38; in assay [4], 7; in assay [5] it was 11.

In the case of α-SYN PFF (from UniProt O55042 1-140), the Kd in the assay with NRXN3β was 340 nM; in the assay with APP it was over 3000 nM; in the assay with NRXN1α it was 933 nM; with NRXN2β, 630 nM; with APLP2, over 3000 nM; with NRXN1β, 260 nM.

“Human α-syn PFF (from UniProt P37840 1-140) (other; other documents disagree on this pair)”: the Kd in assay [6] was found to be 2.7 nM.

Take “α-syn-biotin monomer (from UniProt O55042 1-140)”: the Kd in [1] and in assay [2] was over 3000 nM in each case.

Take α-SYN (from UniProt O55042 1-140): the Kd with NRXN3β, in the assay with APP, with NRXN1α, with NRXN2β, in the assay with APLP2 and in the assay with NRXN1β was over 3000 nM in each case.
